Measured values taken from paper PMC7188706 (Cancer Chemotherapy and Pharmacology, 2020).

Assay: Plasma pharmacokinetics and drug monitoring of high-dose, pulsatile sorafenib (LC-MS/MS, non-compartmental)

Question: With CNC(=O)c1cc(Oc2ccc(NC(=O)Nc3ccc(Cl)c(C(F)(F)F)c3)cc2)ccn1 [sorafenib] as the molecule, how does the “Cmax week 1, mean (± SD)” value (Cohort 1, 3 patients, fixed dose week 1 1000 mg) read?
Answer: Its value is 9089 (± 3281) μg/L.

Question: What about the “Cmax week 1, mean (± SD)” value (Cohort 4, 3 patients, fixed dose week 1 2800 mg) of the same molecule?
Answer: Its value is 15,200 (± 1266) μg/L.
